Assay results as given in PubChem BioAssay AID1817 (Sanford-Burnham Center for Chemical Genomics, 2009).
“And” between values parts separate entries of the source, which are not always exact repeats. Equal entries are not always repeated. The list shows a part of the results, in another mix than the full data. Results with a measured potency or affinity are listed apart. The source made the active and inactive calls.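 The calls were made as follows: active = displacement of at least 50% at 20 µM, with a fluorescence ratio check between 0.3 and a set limit; inactive = the rest.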

Amino acid sequences for entries named in this document (tags omitted). A change or cut given only in a name is not applied to a line headed by its entry.
UniProt Q8IUQ4: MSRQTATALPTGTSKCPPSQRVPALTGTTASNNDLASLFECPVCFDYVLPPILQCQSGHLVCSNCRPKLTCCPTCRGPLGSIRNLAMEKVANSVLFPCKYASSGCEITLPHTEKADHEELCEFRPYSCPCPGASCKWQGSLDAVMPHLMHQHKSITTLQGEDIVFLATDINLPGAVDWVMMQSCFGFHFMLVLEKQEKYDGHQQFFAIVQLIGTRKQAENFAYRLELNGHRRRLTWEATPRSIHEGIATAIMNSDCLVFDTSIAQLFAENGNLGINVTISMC

What follows are compounds tested against E3 ubiquitin-protein ligase SIAH1 (Homo sapiens) (UniProt Q8IUQ4) (assay: Siah-1 peptide-binding antagonists, primary screen, biochemical, fluorescence polarization, rhodamine-plectin, uHTS (AID 1817;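 also: plate controls were Siah plus tracer with DMSO for no effect and tracer alone without Siah for full effect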)). Details: Siah-1 / rhodamine-plectin peptide fluorescence polarization; at 20 µM; stronger effect = higher value.

Row | SMILES | displacement
1 | CCNC(=S)/N=C(\N)N[N+](=O)[O-] | inactive: -0.2%
2 | O=C(NC1CCS(=O)(=O)C1)NP(=S)(Oc1ccccc1)Oc1ccccc1 (configuration not stated) | inactive: 3%
3 | c1ccc(-c2nn[nH]n2)c(-c2nn[nH]n2)c1 | inactive: 6.5%
4 | Cc1ccc(NP(=O)(Oc2cccc(C)c2)Oc2cccc(C)c2)nc1 | inactive: -2.7%
5 | CCOC(=O)NC(Sc1ccccc1)C(Cl)(Cl)Cl (configuration not stated) | inactive: -1%
6 | COC(=O)c1cc2c(s1)N=C(c1ccccc1)N(C)P2(=O)N1CCOCC1 (configuration not stated) | inactive: 0.8%
7 | CC(=O)NC(SC(=S)N(CC(C)C)CC(C)C)C(Cl)(Cl)Cl (configuration not stated) | inactive: 8.1%
8 | Cc1ccc(OP(=O)(Nc2ccccn2)Oc2ccc(C)cc2)cc1 | inactive: -4.4%
9 | O=C(OC1CN2CCC1CC2)c1ccccc1 (configuration not stated) | inactive: -1.6%
10 | CCC(=O)N1C2C3N(C(=O)CC)C1C1N(C(=O)CC)C(C(N1C(=O)CC)N3C(=O)CC)N2C(=O)CC | inactive: -1.6%
11 | Cc1ccccc1OP(=O)(Nc1ccccn1)Oc1ccccc1C | inactive: -5.7%
12 | CN(C)C(=O)Oc1noc2ccccc12 | inactive: 5.2%
13 | O=c1c2cc([N+](=O)[O-])ccc2[nH]c2c([N+](=O)[O-])cc([N+](=O)[O-])cc12 | inactive: 59.5%
14 | O=P1(Nc2nc3ccc(Cl)cc3s2)COc2ccccc2O1 (configuration not stated) | inactive: 3.2%
15 | CCOc1ccc(C2=NCC(CBr)S2)cc1 (configuration not stated) | inactive: -2.3%
16 | CC(C)(C)C(=O)NC(Sc1ccccc1)C(Cl)(Cl)Cl (configuration not stated) | inactive: -2.5%
17 | CC(=O)c1ccc(N2CC2c2ccncc2)cc1 (configuration not stated) | inactive: -1.4%
18 | C[C@@H]1C=CCP(=O)(Oc2ccccc2)O1 (some centres not stated) | inactive: 2.1%
19 | C[C@H]1OP(=O)(Oc2ccccc2)C[C@@H]2O[C@@H]21 (some centres not stated) | inactive: 5.5%
20 | CC(=O)Nc1ccc([As](=O)(O)O)c(O)c1 | inactive: -1%
21 | CC(=O)Nc1ccc(Oc2c([N+](=O)[O-])cc([N+](=O)[O-])cc2[N+](=O)[O-])cc1 | inactive: 4.4%
22 | CC(C)C(=O)NC(Sc1ccccc1)C(Cl)(Cl)Cl (configuration not stated) | inactive: 1.5%
23 | O=P(Nc1nccs1)(c1ccccc1)c1ccccc1 | inactive: 3.8%
24 | c1nnnn1CCn1cnnn1 | inactive: 3.5%
25 | O=P(Nc1ccccn1)(c1ccc(Br)cc1)c1ccc(Br)cc1 | inactive: -4%
26 | CN(C)C1(CNC(=O)c2ccc(Cl)c(S(N)(=O)=O)c2)CCCCC1 | inactive: -3.5%

Row | SMILES | displacement
27 | O=P(Nc1nc2ccccc2s1)(c1ccccc1)c1ccccc1 | inactive: 6.6%
28 | C[C@H]1OP(=O)(Oc2ccccc2)[C@H](O)[C@H](O)[C@H]1N=[N+]=[N-] (some centres not stated) | inactive: 0.6%
29 | O=[N+]([O-])c1ccc(O)c(/C=N/Nc2ccc([N+](=O)[O-])cc2[N+](=O)[O-])c1 | inactive: 47%
30 | CC(=O)NC(SC(=S)N(C)C)C(Cl)(Cl)Cl (configuration not stated) | inactive: 1%
31 | O=[N+]([O-])c1ncn(CCn2cnc([N+](=O)[O-])n2)n1 | inactive: 14%
32 | O=[As](O)(c1ccccc1)c1ccc(O)cc1 | inactive: 8.6%
33 | Nc1ccc([As](=O)(O)c2ccc([N+](=O)[O-])cc2)cc1 | inactive: -1.9%
34 | C(Cc1nn[nH]n1)Cc1nn[nH]n1 | inactive: 6.4%
35 | O=C(OC1CN2CCC1CC2)c1cccc(Cl)c1 (configuration not stated) | inactive: -4%
36 | O=C(Nc1cc([As](=O)(O)O)ccc1O)c1ccccc1 | inactive: -0.45%
37 | CC(C)(C)C(=O)NC(Sc1ccncn1)C(Cl)(Cl)Cl (configuration not stated) | inactive: 0.4%
38 | O=[N+]([O-])c1ncn(CCn2ncnc2[N+](=O)[O-])n1 | inactive: -2%
39 | O=[N+]([O-])c1cccc(NC2=NCC(CBr)S2)c1 (configuration not stated) | inactive: -5.5%
40 | O=C(O)CNc1ccc([As](=O)(O)O)cc1 | inactive: 9.05%
41 | COc1ccc(C2=NCC(CBr)S2)cc1 (configuration not stated) | inactive: 1.6%
42 | O=[N+]([O-])c1cccc2n[nH]nc12 | inactive: 3.3%
43 | CC(=O)N1C2C3N(C(C)=O)C1C1N(C(C)=O)C(C(N1C(C)=O)N3C(C)=O)N2C(C)=O | inactive: 4.4%
44 | Cc1ccc(NP(=O)(Oc2ccccc2)Oc2ccccc2)nc1 | inactive: -1.9%
45 | CCc1nc2c(n1)c1c(non1O)c1c2no[n+]1[O-] | inactive: 0.4%
46 | O=[N+]([O-])c1cc([N+](=O)[O-])c(CCNc2ccccc2)c([N+](=O)[O-])c1 | inactive: 1.3%
47 | Nc1ccc([As](=O)(O)c2ccc(N)cc2)cc1 | inactive: 1.7%
48 | C[N+]1=C2C=CC=CC=C2SC12C([N+](=O)[O-])=CC([N+](=O)[O-])=C[C-]2[N+](=O)[O-] (configuration not stated) | inactive: 34.4%
49 | CCN(/C(=N/P(=O)(N1CCOCC1)N1CCOCC1)N1CCOCC1)c1ccc(OC)cc1 | inactive: 0.1%
50 | CC(C)=N/N=C(\N)N[N+](=O)[O-] | inactive: 6.7%
51 | CN(C)C(=O)OCCc1n(C)cc[n+]1C | inactive: -1.7%
52 | CC1CCN(C(=O)Oc2c(Cl)cc(Cl)c3cccnc23)CC1 | inactive: -5.4%

Row | SMILES | displacement
53 | NC(=O)c1cc([N+](=O)[O-])cc([N+](=O)[O-])c1N | inactive: -5%
54 | Cc1ccc(N/C(=N/P(=O)(N2CCOCC2)N2CCOCC2)N2CCOCC2)cc1 | inactive: 6.1%
55 | COc1ccccc1OP(=O)(Nc1ccc(C)cn1)Oc1ccccc1OC | inactive: 6.6%
56 | Cc1ccc(OP(=O)(Nc2nccs2)Oc2ccc(C)cc2)cc1 | inactive: 11.6%
57 | Clc1ccc(Cl)c(NC2=NCC(CBr)S2)c1 (configuration not stated) | inactive: -5%
58 | CN1CCCC(OC(=O)C(c2ccccc2)c2ccccc2)C1 (configuration not stated) | inactive: -5.6%
59 | CC(C)CC(=O)NC(Sc1ccc(Cl)cc1)C(Cl)(Cl)Cl (configuration not stated) | inactive: 4.9%
60 | Nc1cc(N)c2nonc2c1[N+](=O)[O-] | inactive: -3.8%
61 | Oc1ccccc1CNc1ccccn1 | inactive: -5.2%
62 | Cc1c2non([O-])c-2c(C)[n+](=O)[n+]1[O-] | inactive: -1.2%
63 | O=C(NC(Sc1ccncn1)C(Cl)(Cl)Cl)c1ccccc1 (configuration not stated) | inactive: 15.4%
64 | O=C(O)c1ccccc1[As](=O)(O)O | inactive: -3.75%
65 | CC(=O)Nc1ccc([As](=O)(O)O)cc1 | inactive: 2.6%
66 | O=P(Nc1nc2ccc(Cl)cc2s1)(c1ccccc1)c1ccccc1 | inactive: 3.7%
67 | CCOP(=O)(Nc1ccccc1)OCC | inactive: -2% and inactive: 3.7%
68 | Cc1cc(SC(NC(=O)c2ccc(F)cc2)C(Cl)(Cl)Cl)ncn1 (configuration not stated) | inactive: 3%
69 | Cc1ccc(NP(=O)(Oc2ccccc2F)Oc2ccccc2F)nc1 | inactive: -0.1%
70 | O=[N+]([O-])c1cc([N+](=O)[O-])c(CCN2CCOCC2)c([N+](=O)[O-])c1 | inactive: -4.3%
71 | CCN(N=Nc1nonc1N)c1nonc1N | inactive: -1.8%
72 | Nc1cccc2ccc([As](=O)(O)O)cc12 | inactive: 45.8%
73 | C[As](=O)(O)c1cccc(C(=O)O)c1 | inactive: -0.55%
74 | O=[As](O)(c1ccc(O)cc1)c1ccccc1O | inactive: 1.1%
75 | Cc1ccc2nc3c(c(C)c2c1)CC(C(Cl)Cl)S3 (configuration not stated) | inactive: 0.4%
76 | Cc1ccc(OP(=O)(Nc2ccc([N+](=O)[O-])cn2)Oc2ccc(C)cc2)cc1 | inactive: -0.9%
77 | CC(C)c1ccc(OP(=O)(Nc2ccccn2)Oc2ccccc2F)cc1 (configuration not stated) | inactive: 4.3%
78 | ClCCSc1nnc(-c2cccnc2)o1 | inactive: -5.7%

Row | SMILES | displacement
79 | CCN(CC)C(=S)SC(NC=O)C(Cl)(Cl)Cl (configuration not stated) | inactive: 3.9%
80 | CC(C)NC(=O)NP(=O)(Oc1ccccc1)Oc1ccccc1 | inactive: -3.6%
81 | O=[N+]([O-])c1cc([N+](=O)[O-])c(-c2ccn[nH]2)s1 | inactive: 24.1%
82 | O=C(OC1CN2CCC1CC2)C12CC3CC(CC(C3)C1)C2 (configuration not stated) | inactive: -0.4%
83 | Cc1cc(=O)[nH]c(N[N+](=O)[O-])n1 | inactive: 4.6%
84 | Cc1c2c(nc3ccccc13)SC(C(Cl)Cl)C2 (configuration not stated) | inactive: -1.9%
85 | COc1ccc2nc(NP(=O)(c3ccccc3)c3ccccc3)sc2c1 | inactive: 3%
86 | COc1cc(I)ccc1[As](=O)(O)O | inactive: -3.5%
87 | COc1ccc(N/C(=N/P(=O)(N2CCOCC2)N2CCOCC2)N2CCOCC2)cc1 | inactive: -1.2%
88 | COP1(=S)c2c(C)nn(CCC#N)c2N=C(c2ccc(F)cc2)N1C (configuration not stated) | inactive: -1.1%
89 | O=C(COc1ccccc1)OC1CN2CCC1CC2 (configuration not stated) | inactive: -0.4%
90 | O=C(Nc1ccncc1[N+](=O)[O-])c1ccc([N+](=O)[O-])cc1[N+](=O)[O-] | inactive: 0.5%
91 | CCOC(=O)c1ccc(NC(=O)C(C)(CCl)SC)cc1 (configuration not stated) | inactive: 10%
92 | O=C(OC1CN2CCC1CC2)c1cccc([N+](=O)[O-])c1 (configuration not stated) | inactive: 13.5%
93 | CCC(C)N(CC(C)C)C(=S)SC(NC(C)=O)C(Cl)(Cl)Cl (configuration not stated) | inactive: -5.6%
94 | CCOC(=O)Nc1ccc([As](=O)(O)O)c(O)c1 | inactive: -1.2%
95 | CCCCOc1ccc(C(=O)NCC2(N3CCCCC3)CCCCC2)cc1OC | inactive: -4.1%
96 | Cc1cc(SC(NC(=O)c2ccccc2)C(Cl)(Cl)Cl)nc(C(C)C)n1 (configuration not stated) | inactive: -7.8%
97 | CCOC(=O)Nc1cccc([As](=O)(O)O)c1 | inactive: 10.4%
98 | O=[N+]([O-])c1ccc(Nc2ccc(Oc3ccc([N+](=O)[O-])cc3[N+](=O)[O-])cc2)c([N+](=O)[O-])c1 | inactive: 7.3%
99 | O=P(Nc1ccccn1)(c1cccc2ccccc12)c1cccc2ccccc12 | inactive: -0.2%
100 | Cc1cc(SC(NC=O)C(Cl)(Cl)Cl)ncn1 (configuration not stated) | inactive: -3%
101 | Cc1nn(-c2ccccc2)c2c1P(=O)(N1CCOCC1)N(C)C(c1ccccc1)=N2 (configuration not stated) | inactive: 1.7%
102 | CC1CCC(C(C)C)C(OP(=O)(Nc2ccccn2)c2ccccc2)C1 (configuration not stated) | inactive: 0.7%
